Laboratory results taken from ChEMBL document CHEMBL1154107, “Inhibitors of VIM-2 by screening pharmacologically active and click-chemistry compound libraries” (Bioorg Med Chem, 2009).

Columns and labels:
Escherichia coli = assay: Antibacterial activity against imipenem-resistant Escherichia coli BL21(DE3) expressing VIM2 gene after 18 hrs by twofold serial broth dilution method; assay type: functional
Summary of the method: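 Two-fold serial broth dilution MIC per CLSI, 10-point dilutions in Iso-Sensitest broth, 2 mL tubes. BL21 grown 5 h at 37°C in LB (kanamycin 30 μg/mL for pET-9a VIM-2 transformants). Inoculum 5 × 10^5 CFU/mL; shaken ≥18 h at 37°C aerobically.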

[1] = Inhibition of IMP1 using nitrocefin as substrate after 15 mins by microtiter plate assay
[2] = Inhibition of Enterobacter cloacae AmpC using nitrocefin as substrate after 15 mins by microtiter plate assay
[3] = Inhibition of TEM-1 using nitrocefin as substrate after 15 mins by microtiter plate assay

SMILES | MIC (Escherichia coli) | IC50 [1] | IC50 [2] | IC50 [3]
C[C@@H](O)[C@H]1C(=O)N2C(C(=O)O)=C(SCCNC=N)C[C@H]12 [IMIPENEM ANHYDROUS] | 1.9 µg/mL (≈ 6.35 µM) | – | – | –
O=C1c2c(O)ccc(O)c2C(=O)c2c(NCCNCCO)ccc(NCCNCCO)c21 [MITOXANTRONE] | – | > 56 µM | > 25 µM | > 25 µM

≈ marks a conversion by molar mass, not a printed value.
